From ChEMBL document CHEMBL1155801

Amino acid sequences for entries named in this document (tags omitted). Residues count along the entry.
UniProt P23739, 1014-1841 limits assumed: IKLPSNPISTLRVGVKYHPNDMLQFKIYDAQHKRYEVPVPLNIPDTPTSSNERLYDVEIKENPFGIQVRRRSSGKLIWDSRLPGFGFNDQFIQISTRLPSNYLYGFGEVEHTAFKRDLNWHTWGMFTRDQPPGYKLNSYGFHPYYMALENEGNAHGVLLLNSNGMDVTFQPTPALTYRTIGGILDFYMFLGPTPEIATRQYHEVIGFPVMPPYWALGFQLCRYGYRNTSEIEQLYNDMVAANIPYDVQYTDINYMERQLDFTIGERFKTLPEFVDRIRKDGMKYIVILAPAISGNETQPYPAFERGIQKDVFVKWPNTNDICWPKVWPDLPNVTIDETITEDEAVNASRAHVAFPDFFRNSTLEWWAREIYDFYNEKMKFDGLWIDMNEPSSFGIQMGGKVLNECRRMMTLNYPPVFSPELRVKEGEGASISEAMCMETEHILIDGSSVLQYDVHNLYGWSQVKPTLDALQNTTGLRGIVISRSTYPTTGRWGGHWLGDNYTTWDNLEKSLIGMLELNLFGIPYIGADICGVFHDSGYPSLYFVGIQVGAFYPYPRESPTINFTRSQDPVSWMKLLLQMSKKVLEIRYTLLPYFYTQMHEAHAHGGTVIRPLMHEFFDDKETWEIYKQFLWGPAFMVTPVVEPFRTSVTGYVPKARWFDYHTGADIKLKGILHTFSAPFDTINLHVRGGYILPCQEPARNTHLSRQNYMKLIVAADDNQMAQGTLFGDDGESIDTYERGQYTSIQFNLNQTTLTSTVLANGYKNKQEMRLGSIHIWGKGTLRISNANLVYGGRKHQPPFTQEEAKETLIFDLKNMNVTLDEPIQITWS
UniProt P23739, 1-1013 limits assumed: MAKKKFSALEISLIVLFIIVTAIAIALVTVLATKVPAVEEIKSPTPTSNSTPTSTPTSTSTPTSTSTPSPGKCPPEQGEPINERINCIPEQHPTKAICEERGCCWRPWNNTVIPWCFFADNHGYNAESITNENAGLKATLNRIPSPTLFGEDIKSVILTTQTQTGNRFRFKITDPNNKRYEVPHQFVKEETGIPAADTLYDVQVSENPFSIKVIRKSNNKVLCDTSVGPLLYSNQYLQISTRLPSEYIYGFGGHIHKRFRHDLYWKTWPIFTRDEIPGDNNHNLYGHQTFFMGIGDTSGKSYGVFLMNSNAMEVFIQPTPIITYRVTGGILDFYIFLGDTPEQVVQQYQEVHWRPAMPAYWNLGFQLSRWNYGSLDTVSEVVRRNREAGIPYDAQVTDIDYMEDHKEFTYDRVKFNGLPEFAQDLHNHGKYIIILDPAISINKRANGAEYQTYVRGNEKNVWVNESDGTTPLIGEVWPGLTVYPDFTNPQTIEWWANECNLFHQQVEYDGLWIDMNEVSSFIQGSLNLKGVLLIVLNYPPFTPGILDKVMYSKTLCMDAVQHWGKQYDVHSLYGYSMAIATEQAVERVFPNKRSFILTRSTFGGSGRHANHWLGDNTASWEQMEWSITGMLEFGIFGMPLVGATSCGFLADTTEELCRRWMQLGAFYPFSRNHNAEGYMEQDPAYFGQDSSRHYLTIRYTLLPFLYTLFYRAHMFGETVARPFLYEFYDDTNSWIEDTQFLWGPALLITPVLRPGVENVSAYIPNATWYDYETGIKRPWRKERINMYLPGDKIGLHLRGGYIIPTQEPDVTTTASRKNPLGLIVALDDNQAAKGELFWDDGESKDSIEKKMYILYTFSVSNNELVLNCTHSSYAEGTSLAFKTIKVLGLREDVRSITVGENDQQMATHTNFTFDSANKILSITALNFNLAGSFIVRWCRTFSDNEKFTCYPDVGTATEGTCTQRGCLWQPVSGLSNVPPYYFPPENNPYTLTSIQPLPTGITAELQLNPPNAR

Experiments:
[1] = biological target: T1, Sucrase-isomaltase, intestinal (Rattus norvegicus, UniProt P23739); assay: Inhibition of rat intestinal brush border membrane isomaltase
[2] = biological target: T1, Sucrase-isomaltase, intestinal; assay: Inhibition of rat intestinal brush border membrane sucrase

- IC50 [1]: 380 µM
- IC50 [2]: 560 nM
SMILES: C[C@H]1O[C@H](O[C@H]2[C@H](O)[C@@H](O)[C@@H](O[C@H]3[C@H](O)[C@@H](O)C(O)O[C@@H]3CO)O[C@@H]2CO)[C@H](O)[C@@H](O)[C@@H]1N[C@H]1C=C(CO)[C@@H](O)[C@H](O)[C@H]1O (some centres not stated) [ACARBOSE]
